In publication PMC5180416 (Journal of the American Chemical Society, 2012):

Target: WDR5 (WD (Trp-Asp) repeat domain 5) (UniProt P61964 1-334)
Assay: fluorescence polarisation

Ki: 4 nM
Binder: XRV (Deg (diethylglycine) at position 1; N-terminal acetyl; C-terminal amide) [Deg-RV]
